US20230241178A1, “LONG ACTING GLP-1/GIP DUAL AGONISTS” (SUN PHARMACEUTICAL INDUSTRIES LIMITED, priority 2020, published 2023)

Assays:
[1] = tested on: type 2 diabetic mouse (db/db) model; test: Effect of Compound 2 and 7 on blood glucose, body weight and food consumption in mice, up to 72 hr (Tables 6, 7); format: in vivo; conditions: n = 8
Procedure: Similarly body weight changes and cumulative food consumption was measured at 72 hr post treatment.

[2] = target: T1, GIPR (Homo sapiens, UniProt P48546); test: cAMP assay (cAMP Hunter eXpress GPCR Assay) on GIPR-expressing cells; format: cell-based; conditions: read-out: half-maximal effective concentration, cellular cAMP
T1 construct: host or cells: GIPR-expressing cells of the cAMP Hunter eXpress GPCR Assay kit
T1 sequence (P48546 22-466): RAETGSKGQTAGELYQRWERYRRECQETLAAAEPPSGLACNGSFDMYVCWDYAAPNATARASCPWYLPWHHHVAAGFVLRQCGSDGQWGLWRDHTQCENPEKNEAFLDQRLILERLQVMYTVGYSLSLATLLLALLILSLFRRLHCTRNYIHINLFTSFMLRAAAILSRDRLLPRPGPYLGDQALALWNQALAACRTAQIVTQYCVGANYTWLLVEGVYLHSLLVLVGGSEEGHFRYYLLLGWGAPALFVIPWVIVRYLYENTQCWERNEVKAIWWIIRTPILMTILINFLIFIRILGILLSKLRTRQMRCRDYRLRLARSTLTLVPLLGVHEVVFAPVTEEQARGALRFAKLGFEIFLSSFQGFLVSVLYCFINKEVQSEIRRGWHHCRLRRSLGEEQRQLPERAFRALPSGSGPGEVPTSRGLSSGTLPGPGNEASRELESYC
Procedure: In-vitro potency determination was performed using cAMP assay. G protein coupled receptor (GPCR) activation following ligand binding initiates a series of second messenger cascades that results in a cellular response. Signaling by the GLP-1R and GIP-R involves activation of adenylate cyclase and cAMP production. Cellular cAMP production was determined using the cAMP Hunter™ eXpress GPCR Assay (Eurofins DiscoveRx).

[3] = tested on: type 2 diabetic mouse (db/db) model; test: Reduction in blood glucose and effect on body weight and food intake, single dose, db/db mice (Tables 4, 5); format: in vivo
Procedure: The effect of Compounds of present invention on blood glucose was studied on mice. This study was performed in a type 2 diabetic mouse (db/db) model. […] Baseline blood glucose was measured from all the animals. All animals were administered with its respective test item subcutaneously. […] Delta blood glucose (mM) was calculated. Similarly body weight changes and cumulative food consumption was measured at 96 hr post treatment.

Molecule | Delta Blood Glucose (mM), Mean ([1]; 48 hr post treatment, 10 nM/kg) | EC50 [2] | Delta Blood Glucose (mM), Mean ([3]; 4 hr post treatment, @ 10 nM s.c., n = 6 study) | Delta Blood Glucose (mM), Mean ([3]; 4 hr post treatment, @ 59 nM s.c., separate study n = 5) | Delta Blood Glucose (mM), Mean ([3]; 12 hr post treatment, @ 10 nM s.c., n = 6 study) | Delta Blood Glucose (mM), Mean ([3]; 12 hr post treatment, @ 59 nM s.c., separate study n = 5) | Delta Blood Glucose (mM), Mean ([3]; 24 hr post treatment, @ 10 nM s.c., n = 6 study) | Delta Blood Glucose (mM), Mean ([3]; 24 hr post treatment, @ 59 nM s.c., separate study n = 5) | Delta Blood Glucose (mM), Mean ([3]; 48 hr post treatment, @ 10 nM s.c., n = 6 study) | Delta Blood Glucose (mM), Mean ([3]; 48 hr post treatment, @ 59 nM s.c., separate study n = 5) | Delta Blood Glucose (mM), Mean ([3]; 72 hr post treatment, @ 10 nM s.c., n = 6 study) | Delta Blood Glucose (mM), Mean ([3]; 72 hr post treatment, @ 59 nM s.c., separate study n = 5) | Delta Blood Glucose (mM), Mean ([3]; 96 hr post treatment, @ 10 nM s.c., n = 6 study) | Delta Blood Glucose (mM), Mean ([3]; 96 hr post treatment, @ 59 nM s.c., separate study n = 5) | Delta Blood Glucose (mM), Mean ([1]; 4 hr post treatment, 90 nM/kg) | Delta Blood Glucose (mM), Mean ([1]; 8 hr post treatment, 90 nM/kg) | Delta Blood Glucose (mM), Mean ([1]; 12 hr post treatment, 90 nM/kg) | Delta Blood Glucose (mM), Mean ([1]; 24 hr post treatment, 90 nM/kg) | Delta Blood Glucose (mM), Mean ([1]; 48 hr post treatment, 90 nM/kg) | Delta Blood Glucose (mM), Mean ([1]; 72 hr post treatment, 90 nM/kg)
CC[C@H](C)[C@H](NC(=O)[C@H](CC(C)C)NC(=O)[C@H](Cc1c[nH]c2ccccc12)NC(=O)[C@H](CCC(N)=O)NC(=O)[C@@H](NC(=O)[C@H](Cc1ccccc1)NC(=O)[C@H](C)NC(=O)[C@H](CCCCNC(=O)COCCOCCNC(=O)C(C)(C)NC(=O)CC[C@H](NC(=O)CCCCCCCCCCCCCCCCCCC(=O)O)C(=O)O)NC(=O)[C@H](CCC(N)=O)NC(=O)[C@H](C)NC(=O)[C@@H](NC(=O)[C@H](CCCCN)NC(=O)[C@H](CC(=O)O)NC(=O)[C@H](CC(C)C)NC(=O)C(C)(C)NC(=O)[C@@H](NC(=O)[C@H](CO)NC(=O)[C@H](Cc1ccc(O)cc1)NC(=O)[C@H](CC(=O)O)NC(=O)[C@H](CO)NC(=O)[C@@H](NC(=O)[C@H](Cc1ccccc1)NC(=O)[C@@H](NC(=O)CNC(=O)[C@H](CCC(=O)O)NC(=O)C(C)(C)NC(=O)[C@@H](N)Cc1ccc(O)cc1)[C@@H](C)O)[C@@H](C)O)[C@@H](C)CC)[C@@H](C)CC)C(C)C)C(=O)N[C@@H](C)C(=O)NCC(=O)NCC(=O)N1CCC[C@H]1C(=O)N[C@@H](CO)C(=O)N[C@@H](CO)C(=O)NCC(=O)N[C@@H](C)C(=O)N1CCC[C@H]1C(=O)N1CCC[C@H]1C(=O)N1CCC[C@H]1C(=O)N[C@@H](CO)C(N)=O [Compound 2] | -10.1 mM | – | – | – | – | – | – | – | – | – | – | – | – | – | – | – | – | – | – | –
Tirzepatide [reference compound] | – | 1.89 nM | -8.0 mM | -11.8 mM | -5.4 mM | -17.7 mM | -10.0 mM | -14.9 mM | -2.5 mM | -8.1 mM | -1.9 mM | -3.2 mM | 1.5 mM | 0.2 mM | -10.3 mM | -9.4 mM | -13.6 mM | -14.9 mM | -10.1 mM | -4.0 mM
